Data on one compound can be found in US20260085058A1, “DEGRADERS OF SON OF SEVENLESS HOMOLOG 1” (H. LEE MOFFITT CANCER CENTER AND RESEARCH INSTITUTE, INC., priority 2022, published 2026).

Experiment [1] deals with MCC19990-010 CRC PDO. Description: Organoid drug sensitivity assay (CellTiter-Glo 3D viability). It counts as cell-based. As to conditions: Homo sapiens, 72 h, read-out: IC50, viability of PDO. How it is done: (§1) CRC organoids were generated and expanded using a protocol similar to previously published ones for CRC with modifications.^51,52 In brief, the tumor specimen was placed in PBS and then fresh wash media, then minced into approximately 1 mm^3 small fragments using sterile scalpels. Tissue fragments were placed in a Falcon tube with warmed digestion media and then incubated for 30-45 minutes in a 37° C. shaker with agitation at 600 rpm to allow tissue to dissociate into single cells. Larger tissue fragments were allowed to settle under normal gravity for 2 minutes and the supernatant was transferred to a clean Falcon tube. An additional 3 mL of wash media with 10% FBS was added and then centrifuged. Cells were filtered through a […] mesh filter as well as additional 40 μM filter to remove mouse fibroblast. […] When the Matrigel domes solidified, 500 μL of pre-warmed complete growth media was added and incubated in 5% CO2 atmosphere at 37° C. The growth and quantity of the organoid cultures were monitored with fresh growth media added every 2 days. Organoid propagation started from adding digestion media with gentle mechanical digestion. The suspension was incubated in a Falcon tube for 30 minutes, inverted every 10 minutes, and then centrifuged at 1300 rpm for 6 minutes at 4° C. The cell pellet was resuspended in wash media with 0.1% BSA, followed by Matrigel, and then plated as domes. […]
Background: Cellular ATP, detected with luciferase, serves as a proxy for viable cell number.

The test system of experiment [2] is MCC19990-006 CRC PDO. The description is as above. It counts as cell-based. The settings on record: Homo sapiens, 72 h, read-out: IC50, viability of PDO. As to the method: as §1
Experiment [3] relates to SOS2 mRNA. Description: SOS2 mRNA expression by quantitative RT-PCR in SW620 cells. The format is cell-based. How it is done:
The RNA samples were quantified by optical density 260/280, 260/230 readings using a spectrophotometer (NanoDrop, Thermo Fisher Scientific, Waltham, MA, USA). […] Quantitative RT-PCR was performed using the MX3000p Real-Time PCR System (Agilent Technologies, Santa Clara, CA, USA) to determine the mRNA expression levels of SOS1, SOS2, and GAPDH. […] This was followed by Amplitaq activation at 50° C. for 2 minutes, 95° C. for 2 minutes, and then 40 cycles at 95° C. for 1 second for denaturing and at 60° C. for 20 seconds for annealing and extension. We calculated ΔCt, defined as the difference between the crossover threshold (Ct) of the target gene and the Ct average of GAPDH for each sample.

Experiment [4] concerns MCC19990-002 CRC PDO. Description: Organoid drug sensitivity assay (CellTiter-Glo 3D viability). It counts as cell-based, human. As to the method:
as §1

As usually defined, the IC50 is the concentration at which inhibition is half-maximal. Take `COc1cc2nc(C)nc(N[C@H](C)c3cc(N)cc(C(F)(F)F)c3)c2cc1O[C@H]1CCOC1` [BI3406, reference compound]: the half-maximal inhibitory concentration (IC50) in experiment [1] came out at 1.9 µM; in experiment [2] it was 8.5 µM. Besides, the “SOS2 mRNA expression level” value in experiment [3] was “upregulated”. For the same compound, the “Viability of PDO (sensitivity)” value in experiment [4] is listed as “resistant”.
